Measured values taken from ChEMBL document CHEMBL5154915 (J Med Chem, 2022).

Species: Cavia porcellus
Experiment: Activation of SERCA2a activity in guinea pig heart sarcoplasmic reticulum microsomal fraction assessed as increase in SERCA2a-Ca2+ affinity by measuring Kd of calcium at 100 nM preincubated for 5 mins followed by addition of 32-P-ATP measured after 15 mins relative to control
Assay type: subcellular
Details: time 20.0 min
In short: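 Cardiac SR microsomes were prepared from healthy guinea pig hearts and contain SERCA2a plus PLN. Compounds were tested at 10 and 100 nM. ATPase was measured as 32P-ATP release at 37 °C, taking the cyclopiazonic acid (10 μM)-sensitive part, across Ca2+ 100–1500 nM. KdCa and Vmax were derived by curve fitting. N = 4–11; one-way RM ANOVA with Tukey or paired t-test.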

Row | Structure (SMILES) | Activity [%]
1 | C[C@]12CC[C@H](CCCC(=O)O)C[C@@H]1[C@H](O)C[C@@H]1[C@@H]2CC[C@]2(C)C(=O)CC[C@@H]12 | -26
2 | C[C@]12CC[C@H](CCCC(=O)O)C[C@@H]1[C@@H](O)C[C@@H]1[C@@H]2CC[C@]2(C)C(=O)CC[C@@H]12 | -26
